Molecular target: human thrombin (Homo sapiens, UniProt P00734)
Assay: Thrombin time (plasma clotting)
Conditions: clot time sample/clot time DMSO, 3-carene section Table 3

Blood coagulation inhibition activity: Thrombin Time (0.5 mg/ml)	Blood coagulation inhibition activity: Thrombin Time (0.75 mg/ml)	Blood coagulation inhibition activity: Thrombin Time (1.0 mg/ml)	Blood coagulation inhibition activity: Thrombin Time (1.0 mg/ml, listed as 3-carene)	SMILES
1.34 ± 0.04				O=C(O)c1ccc(O)cc1 [4-Hydroxybenzoic acid, 4-hydroxybenzoic acid]
1.56 ± 0.01	2.14 ± 0.13	2.55 ± 0.00	2.55	CC1=CCC2C(C1)C2(C)C (centres unmarked) [Extract 3-Carene, 3-carene]
